Reference: US20220409657A1, “INSTRUCTIONS FOR COMPOSITION AND SENSITIVITY” (Azura Ophthalmics Ltd., priority 2020, published 2022)

Columns and labels:
[1] = taken by mouth; cited from earlier work
[2] = SeS2 lotion; cited from earlier work
human subjects = conditions: one of the ophthalmic studies
Excerpt: In a clinical study three different concentrations were used; 0.1 wt. %, (10 subjects) 0.5 wt. % (12 subjects) and 1 wt. % (26 subjects).

Substance | oral dose that may be toxic [1] [μg per day] | systemic toxicity after topical application to damaged skin [2] | phototoxicity effect, concentrations at which observed (human subjects)
Selenium | > 400 | – | –
selenium disulfide [SeS2] | – | reported to cause systemic toxicity | at least as low as about 0.5 wt. % and 1 wt. %
